Experiment: Franz skin diffusion cell permeation (percutaneous absorption) under ambient, natural or pulsed incoherent LED light

Structure (SMILES): CSCC[C@H](NC(=O)[C@H](Cc1ccccc1)NC(=O)CNC(=O)CNC(=O)[C@@H](N)Cc1ccc(O)cc1)C(=O)O
- % Permeation (percent increase or decrease vs dark baseline, equation 1) (350 + TiO2, 24 cps vs Dark-TiO2): 9746.67%
- % Permeation (percent increase or decrease vs dark baseline, equation 1) (350 + TiO2, 80 cps vs Dark-TiO2): 60.33%
- Permeation (350 + TiO2, pulse rate 24 cps): 103.39 μg/cm^2/24 hrs
- Permeation (350 + TiO2, pulse rate 80 cps): 32.66 μg/cm^2/24 hrs
- Permeation (350 nm LED, pulse rate 24 cps): 94.84 μg/cm^2/24 hrs
- Permeation (350 nm LED, pulse rate 80 cps): 30.59 μg/cm^2/24 hrs
- % Permeation (percent increase or decrease vs dark baseline, equation 1) (350 nm, 24 cps vs Dark): 175.78%
- % Permeation (percent increase or decrease vs dark baseline, equation 1) (350 nm, 80 cps vs Dark): 40.97%
- % Permeation (percent increase or decrease vs dark baseline, equation 1) (390 + TiO2, 24 cps vs Dark-TiO2): 9721.90%
- % Permeation (percent increase or decrease vs dark baseline, equation 1) (390 + TiO2, 80 cps vs Dark-TiO2): 73.24%
- Permeation (390 + TiO2, pulse rate 24 cps): 103.13 μg/cm^2/24 hrs
- Permeation (390 + TiO2, pulse rate 80 cps): 35.29 μg/cm^2/24 hrs
- Permeation (390 nm LED, pulse rate 24 cps): 68.27 μg/cm^2/24 hrs
- Permeation (390 nm LED, pulse rate 80 cps): 38.24 μg/cm^2/24 hrs
- % Permeation (percent increase or decrease vs dark baseline, equation 1) (390 nm, 24 cps vs Dark): 98.52%
- % Permeation (percent increase or decrease vs dark baseline, equation 1) (390 nm, 80 cps vs Dark): 76.22%
- % Permeation (percent increase or decrease vs dark baseline, equation 1) (405 + TiO2, 24 cps vs Dark-TiO2): 19603.81%
- % Permeation (percent increase or decrease vs dark baseline, equation 1) (405 + TiO2, 80 cps vs Dark-TiO2): −32.84%
- Permeation (405 + TiO2, pulse rate 24 cps): 206.89 μg/cm^2/24 hrs
- Permeation (405 + TiO2, pulse rate 80 cps): 13.68 μg/cm^2/24 hrs
- Permeation (405 nm LED, pulse rate 24 cps): 108.21 μg/cm^2/24 hrs
- Permeation (405 nm LED, pulse rate 80 cps): 26.86 μg/cm^2/24 hrs
- % Permeation (percent increase or decrease vs dark baseline, equation 1) (405 nm, 24 cps vs Dark): 214.66%
- % Permeation (percent increase or decrease vs dark baseline, equation 1) (405 nm, 80 cps vs Dark): 23.78%
- % Permeation (percent increase or decrease vs dark baseline, equation 1) (450 + TiO2, 24 cps vs Dark-TiO2): 14509.52%
- % Permeation (percent increase or decrease vs dark baseline, equation 1) (450 + TiO2, 80 cps vs Dark-TiO2): 41.78%
- Permeation (450 + TiO2, pulse rate 24 cps): 153.40 μg/cm^2/24 hrs
- Permeation (450 + TiO2, pulse rate 80 cps): 28.88 μg/cm^2/24 hrs
- Permeation (450 nm LED, pulse rate 24 cps): 298.91 μg/cm^2/24 hrs
- Permeation (450 nm LED, pulse rate 80 cps): 27.10 μg/cm^2/24 hrs
- % Permeation (percent increase or decrease vs dark baseline, equation 1) (450 nm, 24 cps vs Dark): 769.18%
- % Permeation (percent increase or decrease vs dark baseline, equation 1) (450 nm, 80 cps vs Dark): 24.88%
- Permeation Dark (Dark control, ambient light absent): 31.56 μg/0.64 cm^2/25 hrs
- Permeation (Dark control, 24 cps series): 34.39 μg/cm^2/24 hrs
- Permeation (Dark control, 80 cps series): 21.70 μg/cm^2/24 hrs
- Permeation (Dark-TiO2 control (2% TiO2), 24 cps series): 1.05 μg/cm^2/24 hrs
- Permeation (Dark-TiO2 control (2% TiO2), 80 cps series): 20.37 μg/cm^2/24 hrs
- Permeation (Day (natural daylight, not pulsed), control of the 24 cps series): 4.44 μg/cm^2/24 hrs
- Permeation (Day (natural daylight, not pulsed), control of the 80 cps series): 24.44 μg/cm^2/24 hrs
- % Permeation (percent increase or decrease vs dark baseline, equation 1) (Day vs Dark, 24 cps series): −87.09%
- % Permeation (percent increase or decrease vs dark baseline, equation 1) (Day vs Dark, 80 cps series): 12.63%
- Permeation (Day-TiO2 (natural daylight, 2% TiO2, not pulsed), control of the 24 cps series): 8.40 μg/cm^2/24 hrs
- Permeation (Day-TiO2 (natural daylight, 2% TiO2, not pulsed), control of the 80 cps series): 18.67 μg/cm^2/24 hrs
- % Permeation (percent increase or decrease vs dark baseline, equation 1) (Day-TiO2 vs Dark-TiO2, 24 cps series): 700.00%
- % Permeation (percent increase or decrease vs dark baseline, equation 1) (Day-TiO2 vs Dark-TiO2, 80 cps series): −8.35%
- 405/1.7 (Table 10, 405 nm, 1.7 cps): 35.47
- 405/9.7 (Table 10, 405 nm, 9.7 cps): 27.57
- 405/24 (Table 10, 405 nm, 24 cps): 6.86
- Ctrl (Table 10 peptides, ambient light only): 0.00
- Permeation Ctrl (ambient cool fluorescent light only, 260-750 nm, 120 cps): 0.00 μg/0.64 cm^2/25 hrs
- Permeation Ctrl-TiO2 (ambient fluorescent light, sample with 2% (w/w) rutile TiO2): 0.00 μg/0.64 cm^2/25 hrs

From patent US7854753B2, “Photokinetic delivery of biologically active substances using pulsed incoherent light” (Photokinetix, Inc., priority 2002, dated 2010)
